By UniProt entry, the sequences of proteins in these tests, tags left out. Where a name states a change or a piece, a line headed by the entry shows the natural chain unless it says otherwise.
UniProt Q15858: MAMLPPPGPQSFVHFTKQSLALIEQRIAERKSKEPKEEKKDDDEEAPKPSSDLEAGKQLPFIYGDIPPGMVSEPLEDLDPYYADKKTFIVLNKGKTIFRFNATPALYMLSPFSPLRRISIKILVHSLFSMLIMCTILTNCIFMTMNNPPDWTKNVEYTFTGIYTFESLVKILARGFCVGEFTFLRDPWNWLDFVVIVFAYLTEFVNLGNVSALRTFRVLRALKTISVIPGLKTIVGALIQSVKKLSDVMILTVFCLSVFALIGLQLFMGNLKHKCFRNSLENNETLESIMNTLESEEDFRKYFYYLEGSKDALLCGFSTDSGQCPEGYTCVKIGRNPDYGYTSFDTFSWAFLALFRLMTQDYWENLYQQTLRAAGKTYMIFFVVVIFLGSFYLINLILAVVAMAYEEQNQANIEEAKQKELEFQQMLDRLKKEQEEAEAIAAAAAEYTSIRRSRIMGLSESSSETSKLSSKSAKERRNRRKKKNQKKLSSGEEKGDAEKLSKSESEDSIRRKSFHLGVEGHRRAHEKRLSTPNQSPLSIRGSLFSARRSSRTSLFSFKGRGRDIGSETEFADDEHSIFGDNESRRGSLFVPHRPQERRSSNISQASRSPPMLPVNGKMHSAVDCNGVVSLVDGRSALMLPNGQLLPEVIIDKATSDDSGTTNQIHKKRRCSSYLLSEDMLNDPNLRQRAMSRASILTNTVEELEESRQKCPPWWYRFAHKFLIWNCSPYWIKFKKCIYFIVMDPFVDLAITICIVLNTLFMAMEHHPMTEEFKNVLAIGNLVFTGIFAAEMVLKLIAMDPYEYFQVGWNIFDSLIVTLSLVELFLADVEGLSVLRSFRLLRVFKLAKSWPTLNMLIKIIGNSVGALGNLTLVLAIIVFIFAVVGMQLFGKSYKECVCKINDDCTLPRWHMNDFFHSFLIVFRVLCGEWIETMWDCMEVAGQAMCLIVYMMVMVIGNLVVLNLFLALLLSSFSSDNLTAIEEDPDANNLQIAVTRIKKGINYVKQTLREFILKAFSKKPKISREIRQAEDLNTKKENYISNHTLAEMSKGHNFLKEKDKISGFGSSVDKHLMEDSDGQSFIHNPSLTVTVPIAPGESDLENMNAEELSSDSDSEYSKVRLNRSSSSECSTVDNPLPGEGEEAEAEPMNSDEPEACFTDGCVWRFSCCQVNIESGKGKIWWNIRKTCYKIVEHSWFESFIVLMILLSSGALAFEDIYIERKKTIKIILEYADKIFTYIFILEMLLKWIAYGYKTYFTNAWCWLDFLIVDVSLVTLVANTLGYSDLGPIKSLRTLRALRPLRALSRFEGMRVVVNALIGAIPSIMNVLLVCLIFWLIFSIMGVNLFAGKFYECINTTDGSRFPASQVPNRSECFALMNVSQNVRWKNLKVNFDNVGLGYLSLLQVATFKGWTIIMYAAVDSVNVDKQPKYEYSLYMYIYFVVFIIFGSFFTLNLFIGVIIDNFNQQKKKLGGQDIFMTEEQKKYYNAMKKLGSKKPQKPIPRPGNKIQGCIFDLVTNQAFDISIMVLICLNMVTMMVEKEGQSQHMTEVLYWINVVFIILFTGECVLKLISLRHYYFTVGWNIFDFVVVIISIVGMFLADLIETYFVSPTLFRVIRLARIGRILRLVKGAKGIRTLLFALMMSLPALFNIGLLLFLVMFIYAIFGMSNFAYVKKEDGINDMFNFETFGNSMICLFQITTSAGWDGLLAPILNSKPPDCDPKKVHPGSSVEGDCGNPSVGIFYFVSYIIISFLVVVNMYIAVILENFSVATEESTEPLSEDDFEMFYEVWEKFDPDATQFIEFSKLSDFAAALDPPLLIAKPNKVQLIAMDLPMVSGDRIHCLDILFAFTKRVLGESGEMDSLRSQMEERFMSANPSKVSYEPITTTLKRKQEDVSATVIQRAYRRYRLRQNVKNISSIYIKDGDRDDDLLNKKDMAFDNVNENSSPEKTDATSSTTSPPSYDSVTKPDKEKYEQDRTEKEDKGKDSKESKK

One experiment concerns the target human Nav1.7 (Homo sapiens, UniProt Q15858, W1161R). Format: cell-based. The settings on record: read-out: Nav1.7 IC50.
For the substance “GPQCQKWMQKCDRERKCCEGFVCTLWCRKKLW-COOH [NV1D3354]”, the IC50 (usually the concentration that gives 50% inhibition) stood at 13.9 nM.
On the same count and under the same terms, next, “GPQCQKWMQTCDAERKCCEGFVCRLWCRKKLW-COOH [NV1D3007]”: 29.6 nM; “GPAPAPAPAPAPQCQKWMQTCDRERKCCEGFVCTLWCRKKLW-COOH [NV1D3819]”: 56 nM; “GPACQKWMQTCDRERKCCEGFVCTLWCRKKLW-COOH [NV1D3550]”: 25.8 nM.
Same read-out and setting: with “GPACQKWMQTCDARRKCCEGFSCRLWCKKKLW-COOH [NV1D3583]” the figure was 13.1 nM; with “GPYCQKWMQTCDANRKCCEGFSCTLWCKKKLW-COOH [NV1D3560]”, 27.2 nM.
Still for that read-out and setting: with “GPACQKWMQTCDANRKCCEGFSCRLWCKKKLW-COOH [NV1D3587]” the figure was 18.3 nM.
In the case of “GPSCQKWMWTCDAERKCCEGMVCRLWCKKKLW-COOH [NV1D2673]”, the IC50 amounted to 4.31 nM.
Still for that read-out and setting: next, “GPQCQKWMQTCDRERKCCEGFVCTLWCRKKLWDGPWRKM-COOH [NV1D3514]”: 46.4 nM.
Same read-out and setting: next, “GPQCQKWMQTCDRERKCCDGFVCTLWCRKKLW-COOH [NV1D3387]”: 23.7 nM; “GPACQKWMQTCDAERKCCEGFSCRLWCKKKLW-COOH [NV1D3579]”: 59.9 nM; “GPQCQKWMQTCDRERKCCEGFVCTLWCRKKLWRRRRRRRRRRR-COOH [NV1D3523]”: 44.7 nM.
The same measure, in the same setting: with “GPQCQKWMQTCDRERKCCEGFVCTLWCRRKLW-COOH [NV1D3401]” the figure was 45.5 nM; with “GPRCQKWMQTCDRERKCCEGFSCTLWCRKKLW-COOH [NV1D3551]”, 29.3 nM; with “GPQCQKFMQTCDRERKCCEGFVCTLWCRKKLW-COOH [NV1D3465]”, 52.8 nM.
Regarding “GPQCQKWMQTCDRERKCCRGFVCTLWCRKKLW-COOH [NV1D3383]”, the IC50 is 30.3 nM.
“GPQRFVTGHFGGLYPANGQCQKWMQTCDRERKCCEGFVCTLWCRKKLW-COOH [NV1D3812]”: the IC50 was determined as 101 nM.
The same measure, in the same setting: with “GPQCQKWMQTCDRERKCCAGFVCTLWCRKKLW-COOH [NV1D3386]” the figure was 33.6 nM; with “GPACQKWMWTCDAERKCCEGMVCRLWCKKKLW-COOH [NV1D2674]”, 4.03 nM; with “GPYGRKKRRQRRRQCQKWMQTCDRERKCCEGFVCTLWCRKKLW-COOH [NV1D3818]”, 36.3 nM.
Still for that read-out and setting: with “GPRCQKWMQTCDANRKCCEGFVCTLWCKKKLW-COOH [NV1D3573]” the figure was 64.7 nM.
The same measure, in the same setting: next, “GPQCQKWMQTCDRERKCCEGFVCTLWCRKKLWAPAPAPAPAPYGRKKRRQRRR-COOH [NV1D3524]”: 84.9 nM; “GPRRRRRRRRRRRQCQKWMQTCDRERKCCEGFVCTLWCRKKLW-COOH [NV1D3815]”: 102 nM; “GPQCQKWMQTCDRETKCCEGFVCTLWCRKKLW-COOH [NV1D3370]”: 181 nM.
Take “GPQCQKWMQTCDRERQCCEGFVCTLWCRKKLW-COOH [NV1D3381]”: the IC50 amounted to 12.2 nM.
On the same count and under the same terms, next, “GPQCQKWMQTCDRERKCCEGFVCTLWCRKKLD-COOH [NV1D3419]”: 80.9 nM.
Regarding “GPQCQKWMQTCDREAKCCEGFVCTLWCRKKLW-COOH [NV1D3371]”, the IC50 is 151 nM.
The same measure, in the same setting: with “GPACQKWMQTCDAERKCCEGFVCTLWCKKKLW-COOH [NV1D3568]” the figure was 44 nM; with “SCQKWMQTCDAERKCCEGFVCRLWCKKKLW-COOH [(-GP) NV1D2773]”, 9.47 nM; with “GPYCQKWMQTCDRERKCCEGFVCTLWCRKKLW-COOH [NV1D3549]”, 27.5 nM.
The same measure, in the same setting: with “GPYCQKWMQTCDANRKCCEGFSCRLWCKKKLW-COOH [NV1D3586]” the figure was 20.5 nM.
The same measure, in the same setting: next, “GPRCQKWMQTCDAKRKCCEGFVCTLWCRKKLW-COOH [NV1D3529]”: 14.6 nM; “GPSCQKWMQTCDARRKCCEGFSCRLWCKKKLW-COOH [NV1D3581]”: 14.6 nM.
“GPQCQEWMQTCDRERKCCKGFVCTLWCRKKLW-COOH [NV1D3431]”: the IC50 turned out to be 68.6 nM.
As to “GPSPGARAFAPAPAQCQKWMQTCDRERKCCEGFVCTLWCRKKLW-COOH [NV1D3802]”, the IC50 was 68 nM.
As to “GPQCQKWMQDCDRERKCCEGFVCTLWCRKKLW-COOH [NV1D3356]”, the IC50 is 167 nM.
On to “GPAAAAAQCQKWMQTCDRERKCCEGFVCTLWCRKKLW-COOH [NV1D3788]”, for which the half-maximal inhibitory concentration (IC50) is 30.3 nM.
The same measure, in the same setting: next, “GPQCQKWMQTCKRKDKCCEGFVCTLWCRKKLW-COOH [NV1D3426]”: 135 nM; “GPQCQKWMQTCDANRKCCEGFVCTLWCRKKLW-COOH [NV1D3035]”: 32 nM; “GPQCQKWMQTCDRERKCCEGFVCTLWCRKKLWAPAPAYGRKKRRQRRR-COOH [NV1D3525]”: 52.3 nM.
On to “GPSCQKWMQTCDRNRKCCEGFSCTLWCRKKLW-COOH [NV1D3544]”, for which the IC50 is 17.8 nM.
As for “GPQCQKWMQTCDRERKCCEGFVCTLWCKKKLW-COOH [NV1D3014]”, the IC50 was found to be 36.1 nM.
Regarding “GPQCQEWMQTCDRERKCCRGFVCTLWCRKKLW-COOH [NV1D3432]”, the IC50 worked out at 95.9 nM.
Still for that read-out and setting: with “GPQCQKWMQTCDRERKCCEGFVCRLWCRKKLW-COOH [NV1D3015]” the figure was 8.86 nM; with “GPQCQKWMQTCDREQKCCEGFVCTLWCRKKLW-COOH [NV1D3374]”, 114 nM; with “GPSPGARAFQCQKWMQTCDRERKCCEGFVCTLWCRKKLW-COOH [NV1D3803]”, 32.3 nM.
Same read-out and setting: next, “GPQCQKWMQTCDRERKCCEQFVCTLWCRKKLW-COOH [NV1D3396]”: 26.4 nM; “GPQCQKWMQTCDRERKCCEGFVCTLWCRKKLG-COOH [NV1D3439]”: 112 nM.
Same read-out and setting: next, “GPACQKWMQTCDRNRKCCEGFVCTLWCRKKLW-COOH [NV1D3541]”: 9.4 nM; “GPQCQKWMQTCDAERKCCEGFVCTLWCRKKLW-COOH [NV1D3020]”: 47.2 nM.
On to “GPQCQKWMQTCDARRKCCEGFVCRLWCRKKLW-COOH [NV1D3019]”, for which the IC50 amounted to 28.7 nM.
Same read-out and setting: next, “GPRCQKWMQTCDAKRKCCEGFSCTLWCRKKLW-COOH [NV1D3534]”: 20.6 nM; “GPQCQKWMQTCDRNRKCCEGFVCRLWCKKKLW-COOH [NV1D3012]”: 7.74 nM.
Regarding “GPRCQKWMQTCDARRKCCEGFVCTLWCKKKLW-COOH [NV1D3569]”, the IC50 came out at 11.9 nM.
Same read-out and setting: with “GPSCQKWMQTCDAERKCCEGFVCTLWCKKKLW-COOH [NV1D2970]” the figure was 58 nM; with “GPRCQKWMQTCDANRKCCEGFSCRLWCKKKLW-COOH [NV1D3584]”, 13.9 nM; with “GPQCTKWMQTCDRERKCCEGFVCTLWCRKKLW-COOH [NV1D3341]”, 66.2 nM.
“GPACQKWMQTCDAKRKCCEGFVCTLWCRKKLW-COOH [NV1D3532]”: the IC50 was determined as 17.3 nM.
Still for that read-out and setting: with “GPQCQKWMQTCDRERKCCEGFVCTLWCRKKLWGGGGG-COOH [NV1D3792]” the figure was 25.3 nM.
The same measure, in the same setting: with “GPRCQKWMQTCDARRKCCEGFSCTLWCKKKLW-COOH [NV1D3562]” the figure was 23.6 nM; with “GPQCQKWMQTCDRERKCCEGFVCTLWCRKQLW-COOH [NV1D3413]”, 164 nM.
Same read-out and setting: next, “GPRCQKWMQTCDRERKCCEGFVCTLWCRKKLW-COOH [NV1D3547]”: 26.5 nM; “GPSPGARAFAPAPAPAPAPQCQKWMQTCDRERKCCEGFVCTLWCRKKLW-COOH [NV1D3801]”: 88.1 nM.
As to “GPQCQKWMQTCDRNRKCCEGFVCRLWCRKKLW-COOH [NV1D3032]”, the IC50 was found to be 13 nM.
In the case of “GPDGPWRKMAPAPAPAPAPQCQKWMQTCDRERKCCEGFVCTLWCRKKLW-COOH [NV1D3804]”, the concentration for half-maximal inhibition (IC50) is 53.6 nM.
As for “GPQCQEWMQTCDRERKCCEGFVCTLWCRKKLW-COOH [NV1D3350]”, the IC50 stood at 85.6 nM.
Regarding “GPQCQKWMQTCRRERKCCEGFVCTLWCRKKLW-COOH [NV1D3360]”, the IC50 stood at 45.2 nM.
On the same count and under the same terms, with “GPQCQRWMQTCDRERKCCEGFVCTLWCRKKLW-COOH [NV1D3346]” the figure was 23.2 nM; with “GPRCQKWMQTCDAERKCCEGFSCTLWCKKKLW-COOH [NV1D3555]”, 37.4 nM.
For “GPQCQKWMQTCDRKRKCCEGFVCTLWCKKKLW-COOH [NV1D3056]”, the IC50 was 16.2 nM.
On the same count and under the same terms, next, “GPRCQKWMQTCDAERKCCEGFSCRLWCKKKLW-COOH [NV1D3577]”: 18.8 nM; “GPQCQKWMQTCDRRRKCCEGFVCTLWCKKKLW-COOH [NV1D3031]”: 13 nM; “GPQRFVTGHFGGLYPANGAPAPAPAPAPQCQKWMQTCDRERKCCEGFVCTLWCRKKLW-COOH [NV1D3810]”: 66.9 nM.
Regarding “GPQCQKWMQTCDRNRKCCEGFVCTLWCKKKLW-COOH [NV1D3030]”, the IC50 was found to be 41.9 nM.
In the case of “GPQCQKWMQTCDRERKCCEGFTCTLWCRKKLW-COOH [NV1D3399]”, the IC50 turned out to be 47.3 nM.
On the same count and under the same terms, next, “GPQCQKWMQTCDRERKCCEAFVCTLWCRKKLW-COOH [NV1D3393]”: 125 nM; “GPQCQKWMQTCDRERKCCEKFVCTLWCRKKLW-COOH [NV1D3391]”: 157 nM; “GPQCQKWMQTCRRRDKCCEGFVCTLWCRKKLW-COOH [NV1D3425]”: 161 nM.
Same read-out and setting: next, “GPACQKWMQTCDRERKCCEGFSCTLWCRKKLW-COOH [NV1D3554]”: 31.4 nM; “GPQCQKWMQTCDREKKCCEGFVCTLWCRKKLW-COOH [NV1D3369]”: 20.4 nM; “GPQCQKWMQTCDRERKCCEGFVCTLWCRKKLWAAAAA-COOH [NV1D3791]”: 61.8 nM.

Staying with this experiment, now noted: read-out: hNav1.7 TETRA IC50.
Take “GPSCQKWMQTCDSERKCCEGFVCRLWCKKKLW-COOH [NV1D2734]”: the IC50 was determined as 13.4 ± 0.8 nM.
Same read-out and setting: next, “GPACQKWMQTCDSERKCCEGMVCRLWCKKKLW-COOH [NV1D2670]”: 22.2 ± 3.3 nM; “GPQCQKWMQTCDAERKCCEGLVCRLWCKKKLW-COOH [NV1D2893]”: 75.5 ± 10.5 nM; “GPRCQKWMQTCDAERKCCEGMVCRLWCKKKLW-COOH [NV1D2729]”: 8 ± 0.9 nM.
Same read-out and setting: with “SCQKWMQTCDAERKCCEGFVCRLWCKKKLW-COOH [(-GP) NV1D2773]” the figure was 9.47 nM; with “GPSCQKWMQTCDAERKCCEGMVCRLWCKKKLW-COOH [NV1D2730]”, 25.5 ± 4.3 nM.
For “GPACQKWMQTCDSERKCCEGFVCRLWCKKKLW-COOH [NV1D2735]”, the IC50 is 60 ± 16.2 nM.
In the case of “GPRCQKWMWTCDAERKCCEGMVCRLWCKKKLW-COOH [NV1D2672]”, the IC50 came out at 4.5 ± 0.3 nM.
Consider “GPQCQKWMWTCDSERKCCEGFVCRLWCKKKLW-COOH [NV1D2665]”, for which the IC50 was 4.9 ± 0.4 nM.

For the origin of these results see patent US20160287666A1 (priority 2015, published 2016).
